From patent publication US20210386367A1, “DEVICES AND SYSTEMS FOR GASTROINTESTINAL MICROBIOME DETECTION AND MANIPULATION” (Progenity, Inc., priority 2018, published 2021)

System: Proteus mirabilis
Test: Broth microdilution MIC, 50 clinical isolates
Type: cell-based

CO/N=C(\C(=O)N[C@@H]1C(=O)N2C(C(=O)O)=C(CSc3nc(=O)c(=O)[nH]n3C)CS[C@H]12)c1csc(N)n1 [ceftriaxone]
relative activity among drugs tested: most active drug tested; also recorded: most active agent tested

“Also recorded” adds a separate entry of the source.
